This note sets out measurements from publication PMC7499187 (CPT: Pharmacometrics & Systems Pharmacology, 2020).

The data set in a line: Semimechanistic population PK model. To be noted: well-stirred model. It is filed as in vivo, human.

On to `CCN1CCN(Cc2ccc(Nc3ncc(F)c(-c4cc(F)c5nc(C)n(C(C)C)c5c4)n3)nc2)CC1` [Abemaciclib], for which the “fraction of drug entering the liver that escaped hepatic metabolism, Fh” value was determined as 0.719.
